In patent publication US20240360179A1, “STAPLED PEPTIDES AND METHODS THEREOF” (FOG PHARMACEUTICALS, INC., priority 2021, published 2024):
pIC50: −log10 of the molar value.

The chains behind the UniProt entries cited, without tags or fusion partners.
UniProt P35222, whole entry: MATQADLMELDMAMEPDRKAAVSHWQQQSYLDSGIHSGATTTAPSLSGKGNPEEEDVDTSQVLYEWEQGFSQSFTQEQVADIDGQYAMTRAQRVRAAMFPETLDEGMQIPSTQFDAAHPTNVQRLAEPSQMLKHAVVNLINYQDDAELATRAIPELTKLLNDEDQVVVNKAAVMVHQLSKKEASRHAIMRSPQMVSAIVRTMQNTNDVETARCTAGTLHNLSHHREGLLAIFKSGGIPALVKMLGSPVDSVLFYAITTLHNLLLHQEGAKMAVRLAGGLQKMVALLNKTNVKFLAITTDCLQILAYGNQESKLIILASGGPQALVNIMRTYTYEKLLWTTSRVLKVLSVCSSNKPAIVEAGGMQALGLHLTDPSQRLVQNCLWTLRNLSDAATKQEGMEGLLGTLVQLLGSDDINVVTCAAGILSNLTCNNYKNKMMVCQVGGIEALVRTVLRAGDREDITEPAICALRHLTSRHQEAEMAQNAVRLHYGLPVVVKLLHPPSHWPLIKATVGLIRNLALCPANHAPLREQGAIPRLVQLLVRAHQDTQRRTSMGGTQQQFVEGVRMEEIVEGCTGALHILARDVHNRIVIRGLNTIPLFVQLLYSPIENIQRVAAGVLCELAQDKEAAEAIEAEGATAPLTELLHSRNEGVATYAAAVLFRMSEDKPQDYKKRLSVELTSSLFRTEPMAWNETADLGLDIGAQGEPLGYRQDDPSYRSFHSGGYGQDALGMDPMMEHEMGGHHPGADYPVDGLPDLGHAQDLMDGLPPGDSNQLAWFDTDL

target: beta-catenin/TCF4 interaction (Homo sapiens, UniProt P35222); type: cell-based; parameters: host or cells: HEK293; settings: read-out: NanoBRET Abs IC50

Substance	pIC50
2FPhc-PL3-Asp-Npg-B5-Asp-3COOHF-Aib-Ala-Phe-Lys*3-PyrS2-3Thi-BztA-GlnR*3-Ala-NH2 [I-752]	< 5.00
2PymCO-PL3-Asp-Npg-B5-Asp-3COOHF-Aib-Ala-Phe-Lys*3-PyrS2-3Thi-BztA-GlnR*3-Ala-NH2 [I-909]	5.00 to 5.52
3IAPAc-PL3-Asp-Npg-B5-Asp-3COOHF-Aib-Ala-Phe-Lys*3-PyrS2-3Thi-BztA-GlnR*3-Ala-NH2 [I-1076]	< 5.00
3Phc3-PL3-Asp-Npg-B5-Asp-3COOHF-Aib-Ala-Phe-Lys*3-PyrS2-3Thi-BztA-GlnR*3-Ala-NH2 [I-749]	5.00 to 5.52
3Py Ac-PL3-Asp-Npg-B5-Asp-3COOHF-Aib-Ala-Phe-Lys*3-PyrS2-3Thi-BztA-GlnR*3-Ala-NH2 [I-1067]	< 5.00
5hexenyl-MePro-Asp-[Phc][Allyl]Dap-R5-Asp-3COOHF-Aib-Ala-Phe-Lys*3-PyrS2-3Thi-BztA-GlnR*3-Ala-NH2 [I-818]	< 5.00
15PyraPy-PL3-Asp-Npg-B5-Asp-3COOHF-Aib-Ala-Phe-Lys*3-PyrS2-3Thi-BztA-GlnR*3-Ala-NH2 [I-904]	5.00 to 5.52
Ac-PL3-Asp-Cba-B5-Asp-3COOHF-Aic-Ala-Phe-Lys*3-PyrS2-3Thi-BztA-GlnR*3-Ala-NH2 [I-847]	5.00 to 5.52
Ac-PL3-Asp-Npg-B5-Asp-3COOHF-Aib-Ala-Phe-Lys*3-PyrS2-hnLeu-34ClF-GlnR*3-Ala-NH2 [I-762]	5.00 to 5.52
Ac-PL3-Asp-Npg-B5-Asp-3COOHF-Aib-Ala-Phe-Lys*3-PyrS2-hnLeu-34MeF-GlnR*3-Ala-NH2 [I-764]	5.00 to 5.52
Ac-PL3-Asp-Npg-B5-Asp-3COOHF-Aib-Ala-Phe-Lys*3-PyrS2-hnLeu-RbMe2NapA-GlnR*3-Ala-NH2 [I-770]	5.00 to 5.52
Ac-PL3-Asp-Npg-B5-Asp-3COOHF-Ala-Ala-Phe-Lys*3-PyrS2-2F3MeF-34ClF-GlnR*3-Val-NH2 [I-825]	5.00 to 5.52
Ac-PL3-Asp-Npg-B5-Asp-TfeGA-Aib-Ala-Phe-Lys*3-PyrS2-2F3MeF-34ClF-GlnR*3-NH2 [I-891]	5.00 to 5.52
Ac-PL3-Asp-R5-S5-Asp-3COOHF-Aib-Ala-Phe-PyrS2-Lys*3-3Thi-BztA-Ala-GlnR*3-NH2 [I-1485]	< 5.00

target: T1, full-length B-Catenin (Uniprot ID P35222) (Homo sapiens, UniProt P35222); type: binding; settings: competition fluorescence polarization; read-out: beta-Catenin FP IC50
T1 construct: 10 nM full-length B-Catenin (Uniprot ID P35222)

Substance	pIC50
2FPhc-PL3-Asp-Npg-B5-Asp-3COOHF-Aib-Ala-Phe-Lys*3-PyrS2-3Thi-BztA-GlnR*3-Ala-NH2 [I-752]	6.70 to 7.30
2PymCO-PL3-Asp-Npg-B5-Asp-3COOHF-Aib-Ala-Phe-Lys*3-PyrS2-3Thi-BztA-GlnR*3-Ala-NH2 [I-909]	> 7.30
3IAPAc-PL3-Asp-Npg-B5-Asp-3COOHF-Aib-Ala-Phe-Lys*3-PyrS2-3Thi-BztA-GlnR*3-Ala-NH2 [I-1076]	> 7.30
3Phc3-PL3-Asp-Npg-B5-Asp-3COOHF-Aib-Ala-Phe-Lys*3-PyrS2-3Thi-BztA-GlnR*3-Ala-NH2 [I-749]	> 7.30
3Py Ac-PL3-Asp-Npg-B5-Asp-3COOHF-Aib-Ala-Phe-Lys*3-PyrS2-3Thi-BztA-GlnR*3-Ala-NH2 [I-1067]	> 7.30
5hexenyl-MePro-Asp-[Phc][Allyl]Dap-R5-Asp-3COOHF-Aib-Ala-Phe-Lys*3-PyrS2-3Thi-BztA-GlnR*3-Ala-NH2 [I-818]	> 7.30
15PyraPy-PL3-Asp-Npg-B5-Asp-3COOHF-Aib-Ala-Phe-Lys*3-PyrS2-3Thi-BztA-GlnR*3-Ala-NH2 [I-904]	> 7.30
Ac-PL3-Asp-Cba-B5-Asp-3COOHF-Aic-Ala-Phe-Lys*3-PyrS2-3Thi-BztA-GlnR*3-Ala-NH2 [I-847]	> 7.30
Ac-S5-Val-Asp-Chg-B5-Asp-3COOHF-Aib-Ala-Phe-Lys*3-PyrS2-Phe-34ClF-GlnR*3-NH2 [I-1622]	> 7.30
Ac-S5-Val-Asp-Ile-B5-Asp-3COOHF-Aib-Ala-Phe-Lys*3-PyrS2-Phe-34ClF-GlnR*3-NH2 [I-1343]	6.70 to 7.30
Ac-S6-Aib-Asp-Npg-B5-Asp-3COOHF-Aib-Ala-Phe-Lys*3-PyrS2-Phe-34ClF-GlnR*3-NH2 [I-1523]	> 7.30
Ac-S6-Ala-Asp-Cha-B5-Asp-3COOHF-Aib-Ala-Phe-Lys*3-PyrS2-Phe-34ClF-GlnR*3-NH2 [I-1624]	> 7.30
Ac-S6-Ala-Asp-Chg-B5-Asp-3COOHF-Aib-Ala-Phe-Lys*3-PyrS2-Phe-34ClF-GlnR*3-NH2 [I-1625]	> 7.30
Ac-S6-Ala-Asp-DipA-B5-Asp-3COOHF-nLeu-Ala-Phe-Lys*3-PyrS1-Phe-34ClF-GlnR*3-NH2 [I-1691]	> 7.30
Ac-S6-Ala-Asp-Npg-B5-Ala-Asp-3COOHF-Aib-Ala-Phe-[4Abu]DapAc7-Leu-3Thi-BztA-GlnR*3-Ala-NH2 [I-1298]	< 6.00
Ac-S6-Glu-Asp-DipA-B5-Asp-3COOHF-Aib-Ala-Phe-Lys*3-PyrS1-3Thi-34ClF-GlnR*3-Val-NH2 [I-1934]	> 7.30
Ac-S6-Glu-Asp-DipA-B5-Asp-3COOHF-Aib-Ala-Phe-Lys*3-PyrS1-3Thi-BztA-GlnR*3-NH2 [I-1929]	> 7.30
Ac-S6-Glu-Asp-DipA-B5-Asp-3COOHF-Aib-Ala-Phe-Lys*3-PyrS1-Phe-34ClF-GlnR*3-NH2 [I-1927]	> 7.30
Ac-S6-Glu-Asp-DipA-B5-Asp-3COOHF-Aib-Ala-Phe-Lys*3-PyrS1-Phe-34ClF-GlnR*3-Val-NH2 [I-1933]	> 7.30

Substance	pIC50
Ac-S6-Glu-Asp-DipA-B5-Asp-3COOHF-Aib-Ala-Phe-Lys*3-PyrS1-Phe-BztA-GlnR*3-NH2 [I-1928]	> 7.30
Ac-S6-Glu-Asp-DipA-B5-Asp-3COOHF-Leu-Ala-Phe-Lys*3-PyrS1-3Thi-BztA-GlnR*3-NH2 [I-1932]	> 7.30
Ac-S6-Glu-Asp-DipA-B5-Asp-3COOHF-Leu-Ala-Phe-Lys*3-PyrS1-Phe-34ClF-GlnR*3-NH2 [I-1930]	> 7.30
Ac-S6-Glu-Asp-DipA-B5-Asp-3COOHF-Leu-Ala-Phe-Lys*3-PyrS1-Phe-BztA-GlnR*3-NH2 [I-1931]	> 7.30
Ac-S6-Leu-Asp-DipA-B5-Asp-3COOHF-Aib-Ala-Phe-Lys*3-PyrS1-3Thi-BztA-GlnR*3-NH2 [I-1939]	> 7.30
Ac-S6-Leu-Asp-Val-B5-Asp-3COOHF-Aib-Ala-Phe-Lys*3-PyrS1-3Thi-BztA-GlnR*3-NH2 [I-1938]	> 7.30
Ac-S6-Leu-Asp-Val-B5-Asp-3COOHF-Leu-Ala-Phe-Lys*3-PyrS1-3Thi-BztA-GlnR*3-NH2 [I-1937]	> 7.30
Ac-S6-MePro-Asp-Npg-B5-Asp-3COOHF-Aib-Ala-Phe-Lys*3-PyrS2-Phe-34ClF-GlnR*3-NH2 [I-1524]	6.70 to 7.30
Ac-S6-Pro-Asp-DipA-B5-Asp-3COOHF-Aib-Ala-Phe-Lys*3-PyrS1-Phe-34ClF-GlnR*3-NH2 [I-1696]	> 7.30
Ac-S6-Val-Asp-DipA-B5-Asp-3COOHF-Aib-Ala-Phe-Lys*3-PyrS1-Phe-34ClF-GlnR*3-NH2 [I-1783]	> 7.30
Bnc-PL3-Asn-DipA-B5-Asp-3COOHF-CyLeu-Ala-Phe-Lys*3-PyrS2-3Thi-34ClF-GlnR*3-NH2 [I-1728]	6.70 to 7.30
Bnc-PL3-Asp-DipA-B5-Asp-3COOHF-CyLeu-Ala-Phe-Lys*3-PyrS2-3Thi-34ClF-GlnR*3-NH2 [I-1715]	> 7.30
Bua-PL3-Asp-Ile-B5-Asp-3COOHF-Aib-Ala-Phe-Lys*3-PyrS2-3Thi-34ClF-GlnR*3-NH2 [I-1584]	> 7.30
C3a-PL3-Asp-Ile-B5-Asp-3COOHF-Aib-Ala-Phe-Lys*3-PyrS2-3Thi-34ClF-GlnR*3-NH2 [I-1582]	> 7.30
CF3CO-PL3-Asn-DipA-B5-Asp-3COOHF-CyLeu-Ala-Phe-Lys*3-PyrS2-3Thi-34ClF-GlnR*3-NH2 [I-1729]	> 7.30
CF3CO-PL3-Asp-DipA-B5-Asp-3COOHF-CyLeu-Ala-Phe-Lys*3-PyrS2-3Thi-34ClF-GlnR*3-NH2 [I-1716]	> 7.30
Cbc-PL3-Asp-Ile-B5-Asp-3COOHF-Aib-Ala-Phe-Lys*3-PyrS2-3Thi-34ClF-GlnR*3-NH2 [I-1588]	> 7.30
Cbc-PL3-Asp-Npg-B5-Asp-3COOHF-Aib-Ala-Phe-Lys*3-PyrS2-Phe-34ClF-GlnR*3-NH2 [I-1566]	> 7.30
Cpc-PL3-Asp-Ile-B5-Asp-3COOHF-Aib-Ala-Phe-Lys*3-PyrS2-3Thi-34ClF-GlnR*3-NH2 [I-1586]	> 7.30

Substance	pIC50
CypCO-PL3-Asp-Ile-B5-Asp-3COOHF-Aib-Ala-Phe-Lys*3-PyrS2-3Thi-34ClF-GlnR*3-NH2 [I-1590]	> 7.30
Isovaleryl-PL3-Asp-DipA-B5-Asp-3COOHF-CyLeu-Ala-Phe-Lys*3-PyrS2-3Thi-34ClF-GlnR*3-NH2 [I-1711]	> 7.30
Me2NAc-PL3-Asp-Npg-B5-Asp-3COOHF-Aib-Ala-Phe-Lys*3-PyrS2-3Thi-BztA-GlnR*3-Ala-NH2 [I-1078]	> 7.30
MeImid4SO2-PL3-Asp-Npg-B5-Asp-3COOHF-Aib-Ala-Phe-Lys*3-PyrS2-3Thi-BztA-GlnR*3-Ala-NH2 [I-1083]	> 7.30
NPyroR3-Asn-Npg-B5-Asp-3COOHF-Aib-Ala-Phe-Lys*3-PyrS2-3Thi-34ClF-GlnR*3-NH2 [I-1557]	6.12 to 6.70
NPyroR3-Asp-Ala-B4-Asp-3COOHF-Aib-Ala-Phe-Lys*3-PyrS3-3Thi-BztA-GlnR*3-Ala-NH2 [I-1492]	6.70 to 7.30
NPyroR3-Asp-Ala-B5-Asp-3COOHF-Aib-Ala-Phe-Lys*3-PyrS2-3Thi-BztA-GlnR*3-Ala-NH2 [I-1493]	< 6.00
NPyroR3-Asp-Ala-B6-Asp-3COOHF-Aib-Ala-Phe-Lys*3-PyrS1-3Thi-BztA-GlnR*3-Ala-NH2 [I-1494]	> 7.30
NPyroR3-Asp-Cha-B5-Asp-3COOHF-Aib-Ala-Phe-Lys*3-PyrS2-3Thi-34ClF-GlnR*3-NH2 [I-1555]	> 7.30
NPyroR3-Asp-Chg-B5-Asp-3COOHF-Aib-Ala-Phe-Lys*3-PyrS2-3Thi-34ClF-GlnR*3-NH2 [I-1554]	> 7.30
NPyroR3-Asp-DipA-B5-Asp-3COOHF-Aib-Ala-Phe-Lys*3-PyrS2-3Thi-34ClF-GlnR*3-NH2 [I-1556]	> 7.30
NPyroR3-Asp-Npg-B4-Asp-3COOHF-Aib-Ala-Phe-Lys*3-PyrS3-3Thi-BztA-GlnR*3-Ala-NH2 [I-1486]	6.70 to 7.30
NPyroR3-Asp-Npg-B4-Asp-3COOHF-Aib-Ala-Phe-Lys*3-PyrS3-3Thi-BztA-GlnR*3-Ala-NH2 [I-1487]	6.70 to 7.30
NPyroR3-Asp-Npg-B5-Asp-3COOHF-Aib-Ala-Phe-Lys*3-PyrS2-3Thi-34ClF-GlnR*3-NH2 [I-1548]	> 7.30
NPyroR3-Asp-Npg-B5-Asp-3COOHF-Aib-Ala-Phe-Lys*3-PyrS2-3Thi-BztA-GlnR*3-Ala-NH2 [I-1489]	> 7.30
NPyroR3-Asp-Npg-B5-Asp-3COOHF-Ala-Ala-Phe-Lys*3-PyrS2-3Thi-34ClF-GlnR*3-NH2 [I-1559]	> 7.30
NPyroR3-Ser-Npg-B5-Asp-3COOHF-Aib-Ala-Phe-Lys*3-PyrS2-3Thi-34ClF-GlnR*3-NH2 [I-1558]	6.00 to 6.12
isobutyryl-PL3-Asp-Cha-B5-Asp-3COOHF-Aib-Ala-Phe-Lys*3-PyrS2-3Thi-34ClF-GlnR*3-NH2 [I-1576]	> 7.30
isobutyryl-PL3-Asp-Npg-B5-Asp-3COOHF-Aib-Ala-Phe-Lys*3-PyrS2-Phe-34ClF-GlnR*3-NH2 [I-1563]	> 7.30
